Experiment: cn = amount concentration of the nth substance listed, in mol/dm3
Conditions: 101 kPa, Liquid, Advanced Conductivity Orion 162A

CCC[N+](CCC)(CCC)CCC.O=C([O-])C(F)(F)C(F)(F)C(F)(F)C(F)(F)C(F)(F)C(F)(F)C(F)(F)F [tetrapropylammonium perfluorooctanoate] + O
Conditions | electrical conductivity [S/m]
288.15 K, c1 = 0.000528 | 0.00204
288.15 K, c1 = 0.001044 | 0.00381
288.15 K, c1 = 0.00155 | 0.0055
288.15 K, c1 = 0.002046 | 0.00718
288.15 K, c1 = 0.002532 | 0.00868
288.15 K, c1 = 0.003008 | 0.01018
288.15 K, c1 = 0.003474 | 0.01159
288.15 K, c1 = 0.003931 | 0.01294
288.15 K, c1 = 0.00438 | 0.01384
288.15 K, c1 = 0.004819 | 0.01423
288.15 K, c1 = 0.00525 | 0.01452
288.15 K, c1 = 0.005674 | 0.01478
288.15 K, c1 = 0.006192 | 0.01508
288.15 K, c1 = 0.006697 | 0.01536
288.15 K, c1 = 0.007289 | 0.01569
288.15 K, c1 = 0.007865 | 0.01602
288.15 K, c1 = 0.008563 | 0.0164
288.15 K, c1 = 0.009239 | 0.01676
293.15 K, c1 = 0.000528 | 0.0023
293.15 K, c1 = 0.001044 | 0.00429
293.15 K, c1 = 0.00155 | 0.00632
293.15 K, c1 = 0.002046 | 0.00818
293.15 K, c1 = 0.002532 | 0.00994
293.15 K, c1 = 0.003008 | 0.01165
293.15 K, c1 = 0.003474 | 0.01327
293.15 K, c1 = 0.003931 | 0.01471
293.15 K, c1 = 0.00438 | 0.01537
293.15 K, c1 = 0.004819 | 0.01577
293.15 K, c1 = 0.00525 | 0.01611
293.15 K, c1 = 0.005674 | 0.0164
293.15 K, c1 = 0.006089 | 0.01668
293.15 K, c1 = 0.006597 | 0.01702
293.15 K, c1 = 0.007094 | 0.01735
293.15 K, c1 = 0.007675 | 0.01772
293.15 K, c1 = 0.00824 | 0.01806
293.15 K, c1 = 0.008791 | 0.0184
298.15 K, c1 = 0.000495 | 0.0024
298.15 K, c1 = 0.00098 | 0.00458
298.15 K, c1 = 0.001456 | 0.00662
298.15 K, c1 = 0.001923 | 0.00856
298.15 K, c1 = 0.002381 | 0.01055
298.15 K, c1 = 0.00283 | 0.01231
298.15 K, c1 = 0.003271 | 0.0142
298.15 K, c1 = 0.003704 | 0.01594
298.15 K, c1 = 0.004128 | 0.017
298.15 K, c1 = 0.004545 | 0.01751
298.15 K, c1 = 0.004955 | 0.01791
298.15 K, c1 = 0.005357 | 0.01828
298.15 K, c1 = 0.005752 | 0.01864
298.15 K, c1 = 0.00614 | 0.01894
298.15 K, c1 = 0.006522 | 0.01924
298.15 K, c1 = 0.006989 | 0.0196
298.15 K, c1 = 0.007447 | 0.01995
298.15 K, c1 = 0.007895 | 0.0203
298.15 K, c1 = 0.008333 | 0.02064
298.15 K, c1 = 0.008762 | 0.02098
298.15 K, c1 = 0.009182 | 0.0213
303.15 K, c1 = 0.000528 | 0.00301
303.15 K, c1 = 0.001044 | 0.00562
303.15 K, c1 = 0.00155 | 0.008
303.15 K, c1 = 0.002046 | 0.01044
303.15 K, c1 = 0.002532 | 0.01274
303.15 K, c1 = 0.003008 | 0.01498

Reference: the NIST ThermoML archive (doi:10.1021/je900916e)
